Literature values, collected in PMC7472518, “Ultrasensitive Detection of Enzymatic Activity Using Single Molecule Arrays” (Journal of the American Chemical Society, 2020).

Biological target: Bcr-Abl
Details: read-out: Ki (reported); protein-ligand binding experiments; cited from earlier work

Cc1nc(Nc2ncc(C(=O)Nc3c(C)cccc3Cl)s2)cc(N2CCN(CCO)CC2)n1
Ki: 0.03 ± 0.022 nM
